# Literature values in US20070021352A1, “PREVENTION AND TREATMENT OF HEARING DISORDERS” (Cypress Bioscience, Inc., priority 2005, published 2007).
# Tested on: cochlea
# Details: Guinea pig; perfusion into the cochlea via an osmotic minipump; acoustic trauma
structure (smiles),measurement,value
"Nc1nc2ccc(OC(F)(F)F)cc2s1 [riluzole, 2-amino-6-trofluoromethoxybenzothiazole]","protection of cochlea from noise-induced damage (mitochondrial damage, cytochrome c translocation, DNA fragmentation, hair cell degeneration)","prevents mitochondrial damage and subsequent translocation of cytochrome c, DNA fragmentation and hair cell degeneration"
